Measurements taken from patent US10196363B2, “Dihydropyrimidin-2-one compounds and medical use thereof” (JAPAN TOBACCO INC., priority 2014, dated 2019).

Protein sequences, listed by entry. Tags and fused reporters are not part of them. Residues count along the entry.
UniProt P51449, 253-518 limits assumed: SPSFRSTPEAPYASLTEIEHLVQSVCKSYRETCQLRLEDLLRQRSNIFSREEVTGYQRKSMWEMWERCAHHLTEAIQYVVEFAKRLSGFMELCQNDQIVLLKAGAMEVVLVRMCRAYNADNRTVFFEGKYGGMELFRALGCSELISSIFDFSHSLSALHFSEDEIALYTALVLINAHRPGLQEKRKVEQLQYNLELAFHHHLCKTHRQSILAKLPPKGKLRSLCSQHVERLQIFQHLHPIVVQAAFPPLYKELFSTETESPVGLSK
UniProt P51450, 251-516 limits assumed: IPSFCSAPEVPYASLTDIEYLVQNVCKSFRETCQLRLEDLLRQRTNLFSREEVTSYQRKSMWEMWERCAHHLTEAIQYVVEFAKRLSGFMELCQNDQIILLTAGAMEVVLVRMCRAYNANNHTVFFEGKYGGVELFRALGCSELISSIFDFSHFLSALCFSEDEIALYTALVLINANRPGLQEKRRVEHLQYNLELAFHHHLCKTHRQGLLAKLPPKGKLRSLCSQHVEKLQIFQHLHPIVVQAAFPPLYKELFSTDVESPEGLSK

What was measured:
human RORγ = human RORγ (Homo sapiens, UniProt P51449); assay: In vitro assay of inhibitory effect against RORγ transcriptional activity (GAL4-hRORγ LBD luciferase reporter gene assay in CHO cells); conditions: read-out: LUC EC50 hRORγ
Procedure: (§1) In Vitro Assay of Inhibitory Effect Against RORγ Transcriptional Activity
(§2) Inhibitory effect of a test article on transcriptional activity of RORγ was measured by means of the following reporter gene assay.
(§3) cDNA encoding human and mouse RORγ ligand binding domain (LBD) were obtained based on the sequences of human RORγ (Genebank registered number NM_005060.3) and mouse RORγ (Genebank registered number NM_011281.2) (LBD sequence: human RORγ, from Ser253 to Lys518; mouse RORγ, from Ile251 to Lys516).
(§4) The LBD cDNA of human or mouse RORγ was inserted into pFA-CMV vector (Strategene), which expresses GAL4-DNA binding domain fusion protein. The resulting plasmids are hereinafter referred to as GAL4-hRORγ plasmid and GAL4-mRORγ plasmid, respectively.
(§5) GAL4-hRORγ plasmid or GAL4-mRORγ plasmid was transiently co-transfected into Chinese hamster ovary cells (CHO cells) with pG5-Luc (Promega), a reporter plasmid expressing firefly luciferase depending on GAL4.
(§6) TransIT (Registered trademark) CHO transfection reagent (Mirus) was used to co-transfect GAL4-hRORγ plasmid or GAL4-mRORγ plasmid into CHO cells with pG5-Luc plasmid. One day before the assay, CHO cells were suspended in HAM F-12 Nutrient medium containing 10 v/v % fetal bovine serum and seeded at 6×10^6 cells per 175 cm^2 cell culture flask. […]
(§7) RORγ transcriptional activity was detected as the intracellular luciferase activity using SteadyLite HTS Reporter Gene Assay System (Perkin Elmer). […] After the incubation at room temperature for 10 minutes, luminescence of each well was measured by a microplate reader. The luciferase activity derived from the luminescence count in the vehicle-control well treated with 0.2% DMSO alone was defined as 100%, and the luciferase activity in the test article was calculated as a percentage (%-of-control) based on the value of the vehicle-control. EC50 value of test article was calculated by curve fitting with GraphPad Prism. […]

mouse RORγ = mouse RORγ (Mus musculus, UniProt P51450); assay: In vitro assay of inhibitory effect against RORγ transcriptional activity (GAL4-mRORγ LBD luciferase reporter gene assay in CHO cells); conditions: read-out: LUC EC50 mRORγ
Procedure: as §1, §2, §3, §4, §5, §6, §7

[1] = GAL4-hRORγ LBD luciferase reporter, CHO cells
[2] = GAL4-mRORγ LBD luciferase reporter, CHO cells

Row | EC50 (human RORγ; GAL4-hRORγ LBD / pG5-Luc in CHO cells, 2 days incubation) [nM] | EC50 (mouse RORγ; GAL4-mRORγ LBD / pG5-Luc in CHO cells, 2 days incubation) [nM] | SMILES | EC50 (human RORγ; [1]) [nM] | EC50 (mouse RORγ; [2]) [nM]
1 |  |  | CC(C)C1=CN(C23C4C5C2C2C3C4C52C(=O)O)C(=O)N[C@@]1(C)c1ccc(CCC(C)(C)C)c(C(F)(F)F)c1 (stereo partly drawn) | 32 | 36
2 | 28 | 21 | Cc1cc(C2(C)NC(=O)N(CCCC(=O)O)C=C2C(C)C)ccc1CCC(C)(C)C (racemic) |  | 
3 |  |  | CC(C)C1=CN(CCC(=O)O)C(=O)N[C@@]1(C)c1ccc(CC2CCCC2)c(Cl)c1 [Example 263] | 45 | 33

Read-outs that look alike come from different tables or passages of the source.
